In this assay the test system is human breast cancer cell line HCC70. The assay is described as follows: Antitumor test in model with transplanted breast cancer cell line HCC70 (Example 5). How it is done:
A human breast cancer cell line HCC70 was purchased from ATCC and reconstituted using RPMI 1640 medium (manufactured by Thermo Fisher Scientific Inc.) containing 10% fetal bovine serum. Then, the cells were cultured in an incubator set to 37° C. and 5% CO2, and passaged at a frequency of once to twice a week. […] The suspension was subcutaneously transplanted at 100 μL to each 5-week-old female nude mouse (1×10^7 cells/100 μL/head). The mice were grouped 21 days after transplantation when the average tumor volume in the mice with the transplant became about 198 mm^3.
Six mice per group were used in groups 1, 2, and 3, and 12 mice was used in group 4. Body weights and tumor sizes were measured once to twice a week, and estimated tumor volumes were calculated. The comparison of drug efficacy between agents was analyzed by the parametric Dunnett's multiple comparison.
TA-MUC1-DXd ADC was sequentially administered at 10 mg/kg (Q3W×3) to one of the groups, and evaluation and observation were carried out up to Day 84.

Take “trastuzumab deruxtecan [HER2-DXd ADC, reference compound]”: the “tumor course after regrouping of the HER2-DXd ADC administration group” value (10 mg/kg from Day 21 to tumors pre-treated with HER2-DXd ADC, TA-MUC1-DXd ADC Q3W×3 up to Day 84, HER2-DXd ADC up to Day 42) is reported as “grew continuously”. In addition, under “Day 21, 10 mg/kg, intravenous, HCC70”, the “ETV (mm^3) Mean” value came to 443 mm^3. For the same substance, the tumor regression effect entry (Day 21, 10 mg/kg, HCC70) was “no tumor regression”.
